According to patent US20070049535A1, “PREVENTIVE/REMEDY FOR DIABETIC COMPLICATIONS USING OLIGOPEPTIDE” (priority 2004, published 2007):

Experiments:
[1] = AGE2-producing capability by reaction of oligopeptide with glyceraldehyde (ELISA with anti-AGE2 polyclonal antibody); format: biochemical; settings: 10 mM amino acid or peptide + 100 mM glyceraldehyde, 0.1M phosphate buffer pH 7.4, 37° C., 1 week
Description: To 0.1M phosphate buffer (pH 7.4) containing 10 mM of any of Lys, Lys-Lys, Lys-Lys-Lys, and Lys-Lys-Lys-Lys (SEQ ID NO: 1) was added 100 mM glyceraldehyde and the mixture was reacted at 37° C. for 1 week. One week later, the AGE2 concentration of the reaction mixture was measured.

[2] = tested on: AGE2 production by glyceraldehyde and bovine serum albumin; test: Inhibition of AGE2 production by glyceraldehyde and serum albumin (ELISA with anti-AGE2 polyclonal antibody); settings: read-out: IC50 of inhibition of AGE2 production; 10 mM glyceraldehyde, 10 mg/ml bovine serum albumin, phosphate buffer pH 7.4, 37° C., 3 days

IC50 [2]: 530 µM
SMILES: NCCCC[C@H](NC(=O)[C@H](CCCCN)NC(=O)[C@@H](N)CCCCN)C(=O)O [Lys-Lys-Lys]
AGE2 concentration [1]: 6.8 U/ml
